Target: T1, Human Aβ(1–42)-HiLyte™-Fluor555 (human, UniProt P05067 672-713, HiLyte Fluor555 dye attached to the N-terminus amino acid)
T1 construct: amyloid β(1–42), the 42-residue peptide cut from the amyloid precursor protein, human; numbers count on: the Aβ peptide; also called Aβ(1–42) HiLyte^TM-Fluor555; fluorescent Aβ(1–42); source: bought: AnaSpec (Freemont, CA, USA)
Test: other fluorescence titration; reversion of the fluorescence increase: 100 nM non-labelled Aβ(1–42) added after complex formation of 10 nM Aβ(1–42) HiLyte Fluor555 with 5 nM calbindin-D28k; same buffer, 24–25 °C
Conditions: both partners purified

koff: 0.0083 s⁻¹
B1: calbindin-D28k (natural protein)
chain: MAESHLQSSLITASQFFEIWLHFDADGSGYLEGKELQNLIQELQQARKKAGLELSPEMKTFVDQYGQRDDGKIGIVELAHVLPTEENFLLLFRCQQLKSCEEFMKTWRKYDTDHSGFIETEELKNFLKDLLEKANKTVDDTKLAEYTDLMLKLFDSNNDGKLELTEMARLLPVQENFLLKFQGIKMCGKEFNKAFELYDQDGNGYIDENELDALLKDLCEKNKQDLDINNITTYKKNIMALSDGGKLYRTDLALILCAGDN
notes: Assayed with 50 µM CaCl2; also called CALB1; source: E. coli BL-21 (DE3), pET-15b-CALB1, purified (HisTrap FF, Sephadex G75), His6 tag cut with thrombin
